Test results published in PMC3288537 (ACS Chemical Biology, 2011).

System: ERK1/2 and p38 phosphorylation in splenocytes
Assay: Immunoblot of phosphorylation levels in spleen of mice injected i.p.
Type: in vivo, C57B6 mice
Settings: mouse spleen
Procedure, shortened: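 C57B6 mice given test compound i.p. at 3 or 5 mg kg-1, or vehicle; spleens taken 3 h or 6 h later (3 mice per dose and time). Spleen sonicated in Tris pH 7.4 buffer with phosphatase and protease inhibitors; 800 × g supernatant used. Blotted for pS473-AKT, pS23-HePTP, pERK1/2 and pp38, normalised to total protein then GAPDH. ANOVA/Tukey or t-test.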

Structure (SMILES): O=C(O)c1ccccc1-c1ccc(/C=c2\sc3nc4cc(Br)cnc4n3c2=O)o1 [Compound 1]
- pp38 level relative to vehicle control (i.p. 3 mg/kg for 3 h): 1.67 ± 0.16
- pERK1/2 level relative to vehicle control (i.p. 3 mg/kg for 6 h): 2.26 ± 0.46
- pp38 level relative to vehicle control (i.p. 3 mg/kg for h (time not given)): 1.75 ± 0.13
- pERK1/2 level relative to vehicle control (i.p. 5 mg/kg for 6 h): 1.97 ± 0.16
- pp38 level relative to vehicle control (i.p. 5 mg/kg for 6 h): 2.33 ± 0.33
